These are literature values, as cited in paper PMC12615863, “Improving GRPR-targeting peptides for radiotheranostics application: insights from chelator modifications and α-methyl-L tryptophan substitution” (EJNMMI Radiopharmacy and Chemistry, 2025).

Amino acid sequences for entries named in this document (tags omitted). A change or cut given only in a name is not applied to a line headed by its entry.
UniProt P30550: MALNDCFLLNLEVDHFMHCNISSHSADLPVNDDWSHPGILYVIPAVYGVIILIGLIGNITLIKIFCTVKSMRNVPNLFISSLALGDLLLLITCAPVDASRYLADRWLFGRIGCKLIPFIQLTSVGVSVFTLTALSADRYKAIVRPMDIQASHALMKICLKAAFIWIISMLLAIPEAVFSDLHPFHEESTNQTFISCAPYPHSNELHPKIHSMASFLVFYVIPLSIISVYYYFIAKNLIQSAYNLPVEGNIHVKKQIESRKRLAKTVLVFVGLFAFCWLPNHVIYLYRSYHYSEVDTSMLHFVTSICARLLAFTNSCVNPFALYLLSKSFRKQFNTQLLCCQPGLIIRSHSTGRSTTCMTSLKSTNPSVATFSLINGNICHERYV

Where two headings read alike, the source gives them in different places.

The target in the data set is T1, GRPR (Homo sapiens, UniProt P30550).
T1 construct: 3 × 10^6 PC-3 cells were seeded in 100 mm Petri dishes; host or cells: PC-3 human prostate cancer cells
Also noted: method as in PMID 19480415. The following applies: LigandTracer, PC-3 cells, 1 and 5 nM, previously published data, cited from earlier work.

As for “DOTAGA-PEG2-Pip-[Sar^11]RM26 [[^177Lu]Lu-AU-RM26-M2] [parent compound, AU-RM26-M2 (DOTAGA-PEG2-Pip-[Sar^11]RM26) labeled with Lu-177, previously reported by the authors]”, the Kd is, setting by setting: (read-out: KD1) 0.192 nM; (read-out: KD2) 55.2 nM.
